Earlier results in US20210037830A1, “PHYTOTOXIC MICRONUTRIENT COMBINATIONS FOR SELECTIVE CONTROL OF INVASIVE PLANT SPECIES” (Edaphix, LLC, priority 2019, published 2021).

Test system: French marigold
Conditions: in vivo; cited from earlier work

iron
concentration inducing micro-nutrient toxicity: 2000 ng/mL
